# Literature values, collected in patent US20150164812A1, “Porous Tablets As Carriers For Liquid Formulations” (Veloxis Pharmaceuticals A/S, priority 2004, published 2015).
# Some compounds may have been tested in ways that are not shown here.
# Settings: Table 1 Poorly-Soluble Drug Candidates
structure (smiles),measurement,value
CCC(=O)N(c1ccccc1)C1CCN(CCc2ccccc2)CC1,Solubility In Water,Sparingly
